Results: PubChem BioAssay AID1956 (SRMLSC, 2009)
In all, about 220,000 compounds went through this assay and about 10 (0.005%) were called active. Listed are the inconclusive results; actives and inactives stand elsewhere. Cut-off read from the data, not from the text of the source: active = maximum fold increase above about 1.5; inconclusive = no clear call, values can overlap the other calls; inactive = below that; tested in PC3 cells.

Experiment: enhancers of HSV replication in host cells, fold increase, host cell viability (AID 1956)
Settings: HSV replication augmentation in cells

Compound	outcome
Nc1cccc2c([As](=O)(O)O)cccc12	inconclusive
Nc1cccc([As](=O)(O)c2ccccc2)c1	inconclusive
